# Results: article PMC7586407 (Journal of Medicinal Chemistry, 2020)
# Molecular target: T1, MIF (Homo sapiens, UniProt P14174)
# T1 sequence (P14174 2-115 limits assumed): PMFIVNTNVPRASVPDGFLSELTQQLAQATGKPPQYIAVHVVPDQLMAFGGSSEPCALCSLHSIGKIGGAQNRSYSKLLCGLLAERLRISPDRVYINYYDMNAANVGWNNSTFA
# Assay: MIF tautomerase activity assay with 4-HPP as substrate
substance,measurement,setting,value
"4-(4-(isoquinolin-3-yl)-1H-1,2,3-triazol-1-yl)phenol [Compound 10]",LE (ligand efficiency),LE = 1.4(−log IC50)/N,0.39
same,LLE (lipophilic ligand efficiency),LLE = pIC50 – C log P,2.55
